The source of these data is ChEMBL document CHEMBL4043276, “Design, synthesis and biological evaluation of 2-acetyl-5-O-(amino-alkyl)phenol derivatives as multifunctional agents for the treatment of Alzheimer's disease” (Bioorg Med Chem Lett, 2017).

Amino acid sequences for entries named in this document (tags omitted).
UniProt P27338, whole entry: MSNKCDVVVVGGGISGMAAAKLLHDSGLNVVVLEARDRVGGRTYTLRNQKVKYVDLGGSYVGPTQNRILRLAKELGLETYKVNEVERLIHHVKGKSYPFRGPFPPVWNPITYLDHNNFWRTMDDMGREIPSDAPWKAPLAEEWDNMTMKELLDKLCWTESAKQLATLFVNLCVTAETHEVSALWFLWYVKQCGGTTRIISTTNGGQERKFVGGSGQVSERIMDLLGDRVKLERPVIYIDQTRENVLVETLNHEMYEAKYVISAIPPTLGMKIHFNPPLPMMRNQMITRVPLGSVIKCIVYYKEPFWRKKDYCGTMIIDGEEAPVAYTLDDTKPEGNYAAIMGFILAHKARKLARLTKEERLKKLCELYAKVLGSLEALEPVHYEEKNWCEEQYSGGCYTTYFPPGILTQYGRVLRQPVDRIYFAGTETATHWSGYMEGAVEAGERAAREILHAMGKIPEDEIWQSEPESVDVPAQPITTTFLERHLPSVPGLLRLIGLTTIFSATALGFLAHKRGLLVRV

The target of experiment [1] is Amine oxidase [flavin-containing] B (Homo sapiens, UniProt P27338). Briefly: Inhibition of recombinant human MAO-B expressed in insect cell microsomes using kynuramine as substrate by fluorescence spectrophotometric method.
For the next experiment, the species on record is Homo sapiens. Briefly: Selectivity index, ratio of IC50 for recombinant human MAO-A to IC50 for recombinant human MAO-B.

SMILES strings stand for the structures.

Usually IC50 stands for the concentration that inhibits the measured activity by half. In the case of `CC(=O)c1ccc(OCc2cccc(F)c2)cc1O`, the IC50 in experiment [1] amounted to 2.9 nM. Further, the Ratio IC50 in the experiment listed under Homo sapiens is 17500.
